## Permeability data for macrocyclic peptides

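The data file gives no further conditions (lipid, pH, time, direction or concentration), and values from different papers need not be comparable. The list need not hold all peptides of the study. Entries at the database's floor value (log10 P of -10) are not listed.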

PAMPA is the parallel artificial membrane permeability assay, which has no cells and reads passive diffusion.
Permeability is given as log10 of P in cm/s; higher (less negative) is more permeable.

SMILES,PAMPA (log10 cm/s)
COc1ccc(C[C@@H]2NC(=O)[C@@H](CC(C)C)NC(=O)[C@@H](CC(C)C)NC(=O)[C@H](CC(C)C)NC(=O)[C@@H](CC(C)C)NC(=O)[C@@H]3CCCN3C2=O)cc1,-6.68
COc1ccc(C[C@@H]2NC(=O)[C@@H](CC(C)C)NC(=O)[C@@H](CC(C)C)NC(=O)[C@@H](CC(C)C)NC(=O)[C@H](CC(C)C)NC(=O)[C@@H]3CCCN3C2=O)cc1,-7.16
COc1ccc(C[C@@H]2NC(=O)[C@@H](CC(C)C)NC(=O)[C@H](CC(C)C)NC(=O)[C@@H](CC(C)C)NC(=O)[C@H](CC(C)C)NC(=O)[C@H](CC(C)C)NC(=O)[C@H]3CCCN3C2=O)cc1,-6.41
COc1ccc(C[C@@H]2NC(=O)[C@@H](CC(C)C)NC(=O)[C@H]3CCCN3C(=O)[C@H](CC(C)C)NC(=O)[C@H](CC(C)C)NC(=O)[C@@H]3CCCN3C2=O)cc1,-7.27
COc1ccc(C[C@@H]2NC(=O)[C@H](CC(C)C)NC(=O)[C@@H](CC(C)C)NC(=O)[C@@H](CC(C)C)NC(=O)[C@@H](CC(C)C)NC(=O)[C@@H]3CCCN3C2=O)cc1,-6.47
COc1ccc(C[C@@H]2NC(=O)[C@H](CC(C)C)NC(=O)[C@H](CC(C)C)NC(=O)[C@@H](CC(C)C)NC(=O)[C@H]3CCCN3C(=O)[C@@H]3CCCN3C2=O)cc1,-7.05
COc1ccc(C[C@@H]2NC(=O)[C@H](CC(C)C)NC(=O)[C@@H](CC(C)C)NC(=O)[C@H](CC(C)C)NC(=O)[C@H](CC(C)C)NC(=O)[C@H]3CCCN3C2=O)cc1,-6.75
COc1ccc(C[C@@H]2NC(=O)[C@H](CC(C)C)NC(=O)[C@@H](CC(C)C)NC(=O)[C@@H](CC(C)C)NC(=O)[C@H]3CCCN3C(=O)[C@H](CC(C)C)NC(=O)[C@H]3CCCN3C2=O)cc1,-7.12
COc1ccc(C[C@@H]2NC(=O)[C@H](CC(C)C)NC(=O)[C@H](CC(C)C)NC(=O)[C@@H]3CCCN3C(=O)[C@@H](CC(C)C)NC(=O)[C@H](CC(C)C)NC(=O)[C@H]3CCCN3C2=O)cc1,-6.95
COc1ccc(C[C@@H]2NC(=O)[C@@H](CC(C)C)NC(=O)[C@@H]3CCCN3C(=O)[C@@H](CC(C)C)NC(=O)[C@H]3CCCN3C(=O)[C@H](CC(C)C)NC(=O)[C@H]3CCCN3C2=O)cc1,-7.29
COc1ccc(C[C@@H]2NC(=O)[C@@H](CC(C)C)NC(=O)[C@@H](CC(C)C)NC(=O)[C@@H](CC(C)C)NC(=O)[C@@H](CC(C)C)NC(=O)[C@@H]3CCCN3C2=O)cc1,-6.52

Again, the 2 entries with the lowest PAMPA:

{"smiles": "COc1ccc(C[C@@H]2NC(=O)[C@@H](CC(C)C)NC(=O)[C@@H]3CCCN3C(=O)[C@@H](CC(C)C)NC(=O)[C@H]3CCCN3C(=O)[C@H](CC(C)C)NC(=O)[C@H]3CCCN3C2=O)cc1", "PAMPA (log10 cm/s)": "-7.29"}
{"smiles": "COc1ccc(C[C@@H]2NC(=O)[C@@H](CC(C)C)NC(=O)[C@H]3CCCN3C(=O)[C@H](CC(C)C)NC(=O)[C@H](CC(C)C)NC(=O)[C@@H]3CCCN3C2=O)cc1", "PAMPA (log10 cm/s)": "-7.27"}

Source: CycPeptMPDB (Li et al. 2023), which took these values from Rezai et al. 2006, doi:10.1021/ja063076p.